Data: patent US8497265B2, “Heteroaryloxyheterocyclyl compounds as PDE10 inhibitors” (Amgen Inc., priority 2010, dated 2013)

Sequences of proteins named here, by UniProt entry; tags and fusion partners are left off.
UniProt Q8CA95, whole entry: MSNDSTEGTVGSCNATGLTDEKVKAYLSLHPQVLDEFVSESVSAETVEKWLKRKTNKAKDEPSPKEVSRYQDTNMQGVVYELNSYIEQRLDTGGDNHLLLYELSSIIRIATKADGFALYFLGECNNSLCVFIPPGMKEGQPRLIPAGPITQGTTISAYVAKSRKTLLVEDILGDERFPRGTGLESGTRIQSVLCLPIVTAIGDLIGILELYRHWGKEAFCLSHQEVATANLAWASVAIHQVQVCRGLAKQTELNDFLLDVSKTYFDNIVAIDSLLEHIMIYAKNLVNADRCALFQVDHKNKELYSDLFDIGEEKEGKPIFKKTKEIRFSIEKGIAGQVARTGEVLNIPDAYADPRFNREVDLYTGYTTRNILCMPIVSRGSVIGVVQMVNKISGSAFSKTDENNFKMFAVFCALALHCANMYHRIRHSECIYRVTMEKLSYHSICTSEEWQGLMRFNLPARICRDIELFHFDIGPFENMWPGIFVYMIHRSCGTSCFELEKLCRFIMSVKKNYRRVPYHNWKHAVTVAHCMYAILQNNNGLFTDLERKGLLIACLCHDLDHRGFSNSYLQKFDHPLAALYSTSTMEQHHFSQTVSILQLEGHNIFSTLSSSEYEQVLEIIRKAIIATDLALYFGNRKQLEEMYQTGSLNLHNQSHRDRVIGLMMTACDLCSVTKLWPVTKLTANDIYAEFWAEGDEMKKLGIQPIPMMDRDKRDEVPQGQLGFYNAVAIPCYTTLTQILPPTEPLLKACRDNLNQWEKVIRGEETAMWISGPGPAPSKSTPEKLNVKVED

Target: PDE10 (Mus musculus, UniProt Q8CA95)
Assay: PDE10 enzyme inhibition (IMAP TR-FRET assay)
Format: biochemical
Conditions: Table 8A

pIC50: 7.08
SMILES: COc1ncccc1-c1nccnc1OC1CN(c2ccc3ccccc3n2)C1

pIC50: −log10 of the molar value.
